Tested on: normal brain cells

Question: For Oligomycin A/B, which “effect on normal brain cells” value (FIG. 6) is on record?
Answer: Its value is “eradicate any kind of brain cells including normal and glioma ones”.

Question: What about the “viability of normal brain cells” value (exposure for 10 days) of the same substance?
Answer: Its value is “sensitive”.
